{"source": "patent US20120185955A1", "about": "“HEDGEHOG INHIBITOR ASSAY” (priority 2005, published 2012)", "system": "Gli reporter activity in Sufu−/− MEFs", "assay": "8×GliLuc luciferase reporter assay in Sufu−/− MEFs", "format": "cell-based, mouse", "conditions": "10 μM cyclopamine or 100 nM SAG for two days", "method": "For the luciferase reporter assays, 20,000 MEF cells were seeded into each well of a 24-well plate in MEF medium. The following day, cells were transfected using FuGENE 6 (Roche) with 300 ng of the luciferase reporter plasmids 8×GliLuc and 8×Gli^mutLuc (58) with or without 300 ng of the pMYC-SUFU expression plasmid (9), 300 ng of a constitutively active PKA catalytic subunit expression plasmid (59) or with 300 ng of the TOPflash and FOPflash reporter plasmids (Upstate Biotechnology), together with 50 ng the Renilla luciferase phRL-TK reporter (Promega) to monitor the transfection efficiency. […] The assays were conducted in triplicate and repeated at least three times. The values were normalized to the Renilla reporter before calculating relative levels.", "note": "“Also recorded” adds a separate entry of the source."}
{"compound": "CC1=C2C[C@H]3[C@@H](CC=C4C[C@@H](O)CC[C@@]43C)[C@@H]2CC[C@]12O[C@@H]1C[C@H](C)CN[C@H]1[C@H]2C", "note": "[Cyclopamine]", "values": [{"measurement": "Effect on Gli reporter activity (8×GliLuc)", "value": "does not inhibit the pathway; also recorded: inactive"}, {"measurement": "Effect on Gli reporter activity (8×GliLuc)", "setting": "listed as cyclopamine", "value": "no effect was observed"}]}
